Tests used:
[1] = molecular target: Glucocorticoid Receptor (GR) (Homo sapiens, UniProt P04150); test: GR Fluorescence Polarization Assay (PolarScreen Glucocorticoid Receptor Competitor Assay, Red); conditions: read-out: GR binding, IC50 class ranges
[2] = system: IL-6 in A549 cells stimulated with IL-1β; test: A549 Cell Assay to Measure Inflammation Markers (inhibition of IL-1β-induced IL-6); conditions: intrinsic activity, Emax class ranges

By UniProt entry, the sequences of proteins in these tests, tags left out.
UniProt P04150, whole entry: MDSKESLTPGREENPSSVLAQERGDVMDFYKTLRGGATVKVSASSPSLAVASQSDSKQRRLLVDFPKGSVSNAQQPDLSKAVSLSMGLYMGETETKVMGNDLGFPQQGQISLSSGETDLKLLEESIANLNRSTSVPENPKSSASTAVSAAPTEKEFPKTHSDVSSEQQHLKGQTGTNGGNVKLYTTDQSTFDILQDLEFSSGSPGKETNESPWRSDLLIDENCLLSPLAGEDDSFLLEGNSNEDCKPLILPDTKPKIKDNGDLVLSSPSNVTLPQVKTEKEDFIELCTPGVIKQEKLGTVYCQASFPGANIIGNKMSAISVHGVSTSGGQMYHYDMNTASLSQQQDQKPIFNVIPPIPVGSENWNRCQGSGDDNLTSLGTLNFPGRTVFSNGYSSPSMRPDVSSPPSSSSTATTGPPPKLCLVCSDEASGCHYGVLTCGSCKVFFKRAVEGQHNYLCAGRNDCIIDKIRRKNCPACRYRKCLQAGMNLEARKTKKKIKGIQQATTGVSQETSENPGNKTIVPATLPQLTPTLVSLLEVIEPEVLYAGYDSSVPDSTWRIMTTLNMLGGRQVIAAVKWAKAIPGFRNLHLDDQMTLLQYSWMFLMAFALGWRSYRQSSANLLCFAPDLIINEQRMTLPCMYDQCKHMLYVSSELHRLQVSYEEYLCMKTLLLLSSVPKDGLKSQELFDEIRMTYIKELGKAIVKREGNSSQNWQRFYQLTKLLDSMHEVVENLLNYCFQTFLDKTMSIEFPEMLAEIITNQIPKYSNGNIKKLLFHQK

Cc1cc(C2SCC(C)Nc3c2c(-c2ccccn2)nn3C)c(C)cc1Br (racemic)
IC50 [1]: < 0.1 µM | A549 Emax [2]: B (a compound with Emax>60%)

Cc1cc(Br)ccc1C1SCC(C)Nc2c1c(-c1ncon1)nn2C (stereo not shown)
IC50 [1]: < 0.1 µM | A549 Emax [2]: D (a compound with Emax<50%)
